# Active and inactive are the calls of the source. No cut-off for these calls is given here.
# Sequences of proteins named here, by UniProt entry; tags and fusion partners are left off.
# UniProt Q15910, whole entry, looked up: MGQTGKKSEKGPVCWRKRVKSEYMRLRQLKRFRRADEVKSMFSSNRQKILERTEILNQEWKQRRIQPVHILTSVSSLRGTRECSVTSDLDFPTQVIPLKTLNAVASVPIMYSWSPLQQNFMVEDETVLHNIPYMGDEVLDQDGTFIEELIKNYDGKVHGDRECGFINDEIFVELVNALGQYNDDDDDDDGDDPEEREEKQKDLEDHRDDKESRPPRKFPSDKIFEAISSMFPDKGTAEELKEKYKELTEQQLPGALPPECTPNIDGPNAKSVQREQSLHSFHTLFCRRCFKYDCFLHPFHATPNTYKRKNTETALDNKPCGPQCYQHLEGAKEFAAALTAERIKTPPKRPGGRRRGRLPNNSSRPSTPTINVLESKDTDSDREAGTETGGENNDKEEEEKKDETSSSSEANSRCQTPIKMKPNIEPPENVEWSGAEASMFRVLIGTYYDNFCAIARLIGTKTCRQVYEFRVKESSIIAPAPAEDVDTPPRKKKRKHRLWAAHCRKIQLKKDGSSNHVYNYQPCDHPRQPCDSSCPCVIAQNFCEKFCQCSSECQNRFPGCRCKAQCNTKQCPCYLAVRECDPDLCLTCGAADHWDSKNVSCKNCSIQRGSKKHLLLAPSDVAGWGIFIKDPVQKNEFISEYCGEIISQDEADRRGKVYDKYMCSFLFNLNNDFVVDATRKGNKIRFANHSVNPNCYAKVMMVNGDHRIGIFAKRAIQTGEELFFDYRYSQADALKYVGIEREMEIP
# How the values were obtained:
# [1] = molecular target: T1, Histone-lysine N-methyltransferase EZH2 (Homo sapiens, UniProt Q15910); details: dose <= 5.0 nM
# [2] = molecular target: T1, Histone-lysine N-methyltransferase EZH2; details: dose <= 5.0 nM; remark: listed apart in the source
# [3] = molecular target: T1, Histone-lysine N-methyltransferase EZH2; details: dose <= 5.0 nM; remark: listed apart in the source
# [4] = molecular target: T1, Histone-lysine N-methyltransferase EZH2; details: MCF7, dose 5000.0 nM, time 72.0 hrs
compound,measurement,setting,value
CCCc1cc(C)[nH]c(=O)c1CNC(=O)c1cc(-c2ccc(N3CCN(C(C)C)CC3)nc2)cc2c1cnn2C(C)C,inhibition,[1],inactive
same,inhibition,[2],Active
same,inhibition,[3],inactive
same,inhibition,[4],100%
